Chains of the proteins cited; added tags and fusions are not shown. Lines headed by an entry give the natural chain unless they say otherwise; changes in a name come on top.
UniProt P35372, whole entry, looked up: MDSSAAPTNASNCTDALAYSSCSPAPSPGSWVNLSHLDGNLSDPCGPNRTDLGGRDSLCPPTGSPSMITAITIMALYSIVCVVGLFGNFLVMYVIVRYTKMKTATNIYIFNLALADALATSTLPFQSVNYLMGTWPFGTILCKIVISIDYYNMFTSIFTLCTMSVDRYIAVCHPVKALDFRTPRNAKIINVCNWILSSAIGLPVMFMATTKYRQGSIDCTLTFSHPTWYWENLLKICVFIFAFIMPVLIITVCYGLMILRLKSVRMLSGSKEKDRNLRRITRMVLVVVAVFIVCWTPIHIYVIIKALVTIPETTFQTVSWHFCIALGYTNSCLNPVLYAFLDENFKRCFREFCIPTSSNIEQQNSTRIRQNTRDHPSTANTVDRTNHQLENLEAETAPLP
UniProt P41146: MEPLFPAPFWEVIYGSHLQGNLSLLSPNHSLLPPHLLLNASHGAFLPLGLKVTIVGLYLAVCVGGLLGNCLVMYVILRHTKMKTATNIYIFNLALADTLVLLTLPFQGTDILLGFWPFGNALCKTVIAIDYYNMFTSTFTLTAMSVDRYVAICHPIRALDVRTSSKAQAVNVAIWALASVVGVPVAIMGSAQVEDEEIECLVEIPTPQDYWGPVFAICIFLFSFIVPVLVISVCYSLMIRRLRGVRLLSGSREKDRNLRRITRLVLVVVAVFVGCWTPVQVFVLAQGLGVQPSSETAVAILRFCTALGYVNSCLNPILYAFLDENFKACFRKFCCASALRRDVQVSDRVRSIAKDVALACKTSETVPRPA

According to US8404740B2, “Spirocyclic cyclohexane compounds” (dated 2013):

Key:
human μ-opiate receptor = human μ-opiate receptor (Homo sapiens, UniProt P35372); assay: Measurement of μ binding ([3H]-naloxone, CHO-K1 membrane preparation); details: test substance 1 μmol/liter
rat = assay: Tail-flick test carried out analogously on rats; details: i.v.
ORL1 receptor = ORL1 receptor (Homo sapiens, UniProt P41146); assay: Measurement of ORL1 binding (3H-nociceptin/orphanin FQ, membranes of recombinant CHO-ORL1 cells); details: c=1 μM

Row | SMILES | μ % inhibition [1 μM] (human μ-opiate receptor) [%] | also measured
1 | C=CCC1(NCc2ccc(OC)cc2)CCC2(CC1)OCCc1c2[nH]c2ccc(F)cc12 (centres unmarked) | 53 | –
2 | CCCCC1(N(C)C)CCC2(CC1)OCCc1c2[nH]c2ccc(F)cc12 (single isomer, unassigned) | – | Tail-flick Rat ED50 (rat): Rat ED50 = 11 μg/kg
3 | CCCCC1(N2CCN(C)CC2)CCC2(CC1)OCCc1c2[nH]c2ccc(F)cc12 (centres unmarked) | 34 | –
4 | CCCCC1(N2CCOCC2)CCC2(CC1)OCCc1c2[nH]c2ccc(F)cc12 (centres unmarked) | 36 | –
5 | CCCCC1(N2CCCC2)CCC2(CC1)OCCc1c2[nH]c2ccc(F)cc12 (centres unmarked) | – | ORL1 % inhibition [1 μM] (ORL1 receptor): 47%
